# scFv variants of Ab-14 (heavy chain) against a SARS-CoV-2 spike peptide

Reference: Engelhart et al. 2022, doi:10.1038/s41597-022-01779-4. File: FLAb, binding data.

Target peptide (SARS-CoV-2 spike, HR2 region): PDVDLGDISGINAS

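The parent was found by panning a naive human phage display library on the peptide. The library (AAYL49) carries one to three amino acid substitutions per variant, with no insertions or deletions. The scFvs were displayed on barcoded MATa yeast, the peptide on MATalpha yeast. Binding brings cells together so that they mate, and sequencing counts the barcode pairs among the diploids. Scores were corrected for input abundance and mapped to Kd with protein pairs of known affinity run in the same pool. There are three technical replicates.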

Each scFv is VH, the linker GGGGSGGGGSGGGGS, VL, as in the parent Ab-14, and differs from it in the CDRs of the heavy chain only.
VH: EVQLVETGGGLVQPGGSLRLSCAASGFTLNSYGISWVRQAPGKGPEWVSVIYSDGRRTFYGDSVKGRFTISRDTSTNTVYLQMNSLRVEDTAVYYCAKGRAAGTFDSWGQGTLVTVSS
VL: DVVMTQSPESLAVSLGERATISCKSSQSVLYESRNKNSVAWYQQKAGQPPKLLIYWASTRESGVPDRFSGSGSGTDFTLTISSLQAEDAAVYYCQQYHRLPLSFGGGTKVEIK

Each variant is given by its three heavy chain CDRs, as the data file delimits them; those of the parent are GFTLNSYGIS, VIYSDGRRTFYGDSVK, GRAAGTFDS. Numbers give log10(Kd / nM), so 0 is 1 nM and 3 is 1 µM. Smaller is tighter. An entry "nd" has no value in the source: the pair was not observed among the diploids in that replicate. This suggests poor binding but is not conclusive. Background: pairings of library AAYL49 with three empty control strains gave a value in 15% of cases (median 4.06, 5th percentile 2.83). Values in that range, when seen in few replicates, are hard to tell from nonspecific mating. The control count says in how many pairings with the empty strains this scFv gave a signal. Parent in this assay: reference entry 0.65, copy in this library 4.11 (one replicate of three).

The variant GFTLNSYGDS, VIYRDGRRTFYGDSVK, GRAAGEFDS showed nd, nd, nd (controls 1 of 9).
The variant GFTLNSYGIS, VFYSDGRRTFYDDSVK, IRAAGTFDS showed nd, nd, nd (controls 0 of 9).
The variant GFTLNSIGIS, HIYSDGRRTFYGYSVK, GRAAGTFDS showed nd, 2.52, nd (controls 2 of 9).
The variant GFTLNSYGIS, VIVSDGRRTFYMDSVK, GRAWGTFDS showed nd, nd, nd (controls 1 of 9).
The variant GFTLNSYGIS, VIYSDGARTFYGDSIK, GWAAGTFDS showed 2.83, 2.03, 2.70 (controls 0 of 9).
The variant GFWLNSYGIS, VIYSDGRRTFYGPSVK, GRAAPTFDS showed 2.65, 2.22, 4.32 (controls 2 of 9).
The variant GFTLNSYGNS, VIYSDGRRNFYGDSVE, GRAAGTFDS showed 2.63, nd, nd (controls 1 of 9).
The variant GFTCNSYGIS, VIYSDGRRTEYGDSVK, GRAAGTVDS showed nd, nd, nd (controls 2 of 9).
The variant GFTLNSQGIS, VIYSKGRRTFYGDSVK, VRAAGTFDS showed nd, nd, 5.97 (controls 4 of 9).
The variant GFTLNSYNWS, VIYSDGRRTFYGDSVK, GMAAGTFDS showed nd, nd, nd (controls 2 of 9).
The variant GFTCNSISIS, VIYSDGRRTFYGDSVK, GRAAGTFDS showed nd, 4.29, nd (controls 6 of 9).
The variant GFTLNSYGIQ, VIYSDGRRPFYGDSVK, GRAAGYFDS showed nd, 4.91, nd (controls 1 of 9).
The variant GFTLNSYGIS, VGYSDGRRTFYGDSVK, QRAAKTFDS showed nd, 4.18, nd (controls 1 of 9).
The variant GFTLNSYGAS, VIYSDGRRTFYMDSVK, GRAAGTFIS showed nd, nd, nd (controls 1 of 9).
The variant GFELNSYGIS, VIYSDGRRTFYGDSVK, ARAAGYFDS showed 0.34, 0.70, 0.50 (controls 2 of 9).
The variant GFTLNSYGIS, AIYSDGRRTFYGDSVK, PRAAGTYDS showed nd, nd, nd (controls 0 of 9).
The variant GSTLNSYGIS, VIYSDGRRTFYGDSVK, GRAGGTKDS showed 1.16, 1.26, 1.58 (controls 1 of 9).
The variant GFTLDSYGIS, VIYSDGARTFRGDSVK, GRAAGTFDS showed nd, 3.41, nd (controls 0 of 9).
The variant GFTLNGYGIS, VIYSDGRRTFYGKSVQ, GRAAGTFDS showed 2.64, 2.71, 2.33 (controls 3 of 9).
The variant GFTLNSYGIS, VIYSDGRRTFYGKSNK, GRAAGTADS showed nd, 3.98, nd (controls 0 of 9).
The variant GFTLNSYGTS, VIYSDGRRTFYGDSMK, GRADGTFDS showed nd, nd, nd (controls 1 of 9).
The variant GFTLNSYGIS, HNYSDGRRTFYGDSKK, GRAAGTFDS showed 3.36, nd, nd (controls 1 of 9).
The variant GFTLMSYGNS, VIYSDGRRTFYGDSVK, GRAAGTFDY showed nd, nd, 4.89 (controls 2 of 9).
The variant GNTLNSYGIS, VIYSDGRRTFSGDSVK, GRDAGTFDS showed nd, nd, nd (controls 0 of 9).
The variant GFTLNSYGIS, VIYSDGRRTFYGDSVK, GRAAGTTDS showed 2.81, 2.78, 2.79 (controls 5 of 9).
The variant GFDLMSYGIS, VIYSDGRRTFYGDIVK, GRAAGTFDS showed 1.51, 1.74, 2.29 (controls 1 of 9).
The variant GFTLNSYGVS, VIYSMGRRTFYGDSVK, GYAAGTFDS showed nd, nd, 3.54 (controls 4 of 9).
The variant GFTLNSGGIS, VIYSDGRRTFSGDSVK, GRTAGTFDS showed nd, nd, nd (controls 0 of 9).
The variant GFSLNSYGIS, VIYSDGRKTFYGDSVK, GRYAGTFDS showed nd, nd, nd (controls 0 of 9).
The variant GITLNSYGIS, VIYSNGRRTFYGDSVK, GRAAGTYDS showed nd, nd, 5.49 (controls 1 of 9).
The variant GFTLNSYGIS, FIWSDGRRTFYGDSVK, GRAAGTFNS showed 4.35, nd, nd (controls 0 of 9).
The variant GFTLNSNGIS, VIYSDGRRTFYGDSVP, GRAAGTFSS showed 3.36, nd, nd (controls 1 of 9).
The variant WFTLNSYGIS, VIYSDGRRTFYGDSVK, GYAAGTQDS showed nd, nd, nd (controls 0 of 9).
The variant GFTLNSYGIS, VIYSDGRRTFYGDSVK, GRAAGTLDQ showed nd, nd, nd (controls 2 of 9).

The first 2 variants above that were never detected:

The variant GFTLNSYGDS, VIYRDGRRTFYGDSVK, GRAAGEFDS gave nd, nd, nd (controls 1 of 9).
The variant GFTLNSYGIS, VFYSDGRRTFYDDSVK, IRAAGTFDS gave nd, nd, nd (controls 0 of 9).